For 1 molecule, Kd and IC50 results are on record in patent US20230381170A1, “METHOD FOR TREATING ALS/FTD THROUGH DEGRADATION OF RNA REPEAT EXPANSION” (University of Florida Research Foundation, Incorporated, priority 2020, published 2023).

A word on the Kd: it is the equilibrium constant for the complex coming apart. A low value points to a tighter complex. In general, IC50 refers to the point on the concentration scale where inhibition reaches its midpoint.

One assay addresses r(G4C2)8. The assay is described as follows: Biolayer interferometry (BLI) binding. Conditions: r(G4C2) repeats. As for the experimental part: Biolayer Interferometry (BLI). BLI studies were performed similarly as previously described (12) using an Octet RED96. Briefly, 5′-biotinylated nucleic acids were folded by heating at 95° C. for 4 min in 10 mM sodium phosphate buffer, pH 7, followed by slowly cooling to room temperature. Then, to the folded RNA were added the following components: 1.386 mL 1×DPBS (21-031-CV, Corning), 180 μL freshly prepared 1% (w/v) BSA, 36 μL 1% (v/v) Tween-20, and 18 μL DMSO (1% final concentration) in a final volume of 1.8 mL. The final concentration of RNA was 0.5 μM. Separately, serial dilutions of the compound of interest were prepared in the same buffer.
The resulting curves were analyzed and processed using Octet Data Analysis software version 9.1 by subtracting the response of the sensors recorded upon incubation with solutions containing compound and no RNA (parallel reference). The data were then fitted assuming reversible binding using the entire time interval for association and dissociation using either 1:1 or the 2:1 heterogeneous binding curve fitting model. The reported Kd,n, kon,n and koff,n values represent the average of two independent experiments.

Assay [1] has as its system r(G4C2)8 and hnRNP H1 complex. The conditions noted are these: from reference (12); cited from earlier work.

Molecules are shown by their SMILES.

Take `COc1ccc2[nH]c3c(C)c4ccncc4c(C)c3c2c1` [Compound 1]: binding at r(G4C2)8 was characterised by a dissociation constant (Kd) of 300 ± 30 nM. Further, in assay [1], the IC50 was approximately 19 µM.
